Test system: deoxymyoglobin
Assay: Myoglobin assay, CO release under 365 nm UV light
Conditions: 365 nm lamp; 15 μM complex, 60 μM myoglobin, pH 7.4
Experimental: The myoglobin solution, which was prepared in PBS (pH 7.4, 0.1 M), was reduced to deoxymyoglobin using sodium dithionite (100 mM). The solutions of each complex ([…]) in DMSO were incubated with deoxymyoglobin solution ([…]), and the final solution was exposed to 365 nm UV light from a distance of 2 cm. Deoxymyoglobin has a band at 557 nm, while carbonmonoxy-myoglobin has two identical bands at 540 and 577 nm, and the changes at these wavelengths make the process observable and determinable. Thus, the CO-releasing properties of the molecules were calculated using the Lambert–Beer Law.
The commonly used method for determining the CO-releasing of a molecule is UV–visible spectroscopy. There are various ways for releasing CO from a molecule such as substitution, decomposition, and photoactivation. , Manganese carbonyl complexes are known as photoactivatable CO-releasing molecules (photoCORM). A photoCORM must be stable in the dark while it releases CO upon exposure to light of a certain wavelength. […] The basic principle of the myoglobin assay is based on the formation of carbon monoxymyoglobin with the interaction of deoxymyoglobin with CORMs by the spectrophotometric method. […] The CO-releasing properties of a molecule could be evaluated from two perspectives: the first is how fast the molecule’s release is, and the second is how high the rate of the releasing is.

Row | Substance | Half-life t 1/2 (50% of total CO release) [min]
1 | [Mn(CO)3(bpy)(1-(2-vinyloxyethyl)benzimidazole)]PF6 [2e] | 7.49
2 | [Mn(CO)3(bpy)(1-(2-metallyl)benzimidazole)]PF6 [2c] | 3.14

Source: article PMC12290954, “Synthesis, Characterization, Computational Evaluation, CO-Releasing Properties, and Molecular Docking Interactions of New [Mn(CO)3(bpy)L]PF6‑Type Molecules” (ACS Omega, 2025)
